Target: Sucrase-isomaltase, intestinal (Rattus norvegicus, UniProt P23739)
Assay: Inhibition of rat intestinal sucrase using sucrose as substrate assessed as D-glucose release from substrate preincubated for 15 mins measured after 60 mins

Amino acid sequences for entries named in this document (tags omitted). Residues count along the entry.
UniProt P23739, 1014-1841 limits assumed: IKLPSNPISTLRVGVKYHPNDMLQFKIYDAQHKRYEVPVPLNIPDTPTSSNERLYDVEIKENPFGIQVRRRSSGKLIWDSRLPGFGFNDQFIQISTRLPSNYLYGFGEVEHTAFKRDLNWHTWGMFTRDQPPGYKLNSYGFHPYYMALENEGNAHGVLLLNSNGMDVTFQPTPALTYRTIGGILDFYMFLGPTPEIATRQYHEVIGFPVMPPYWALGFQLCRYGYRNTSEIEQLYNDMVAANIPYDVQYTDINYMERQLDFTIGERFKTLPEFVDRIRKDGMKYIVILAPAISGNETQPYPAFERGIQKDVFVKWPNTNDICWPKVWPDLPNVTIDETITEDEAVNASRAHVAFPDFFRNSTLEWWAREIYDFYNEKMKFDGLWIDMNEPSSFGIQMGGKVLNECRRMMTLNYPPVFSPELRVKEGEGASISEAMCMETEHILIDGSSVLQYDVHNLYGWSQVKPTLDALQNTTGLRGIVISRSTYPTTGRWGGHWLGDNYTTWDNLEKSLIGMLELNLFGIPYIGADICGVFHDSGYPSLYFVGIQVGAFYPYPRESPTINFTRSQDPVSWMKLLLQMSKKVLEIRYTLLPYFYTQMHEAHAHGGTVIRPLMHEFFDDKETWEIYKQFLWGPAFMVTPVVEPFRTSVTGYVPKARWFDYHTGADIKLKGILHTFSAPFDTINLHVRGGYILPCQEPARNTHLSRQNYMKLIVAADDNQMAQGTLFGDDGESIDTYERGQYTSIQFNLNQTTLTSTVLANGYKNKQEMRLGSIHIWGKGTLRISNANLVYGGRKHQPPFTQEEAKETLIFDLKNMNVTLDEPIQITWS
UniProt P23739, 1-1013 limits assumed: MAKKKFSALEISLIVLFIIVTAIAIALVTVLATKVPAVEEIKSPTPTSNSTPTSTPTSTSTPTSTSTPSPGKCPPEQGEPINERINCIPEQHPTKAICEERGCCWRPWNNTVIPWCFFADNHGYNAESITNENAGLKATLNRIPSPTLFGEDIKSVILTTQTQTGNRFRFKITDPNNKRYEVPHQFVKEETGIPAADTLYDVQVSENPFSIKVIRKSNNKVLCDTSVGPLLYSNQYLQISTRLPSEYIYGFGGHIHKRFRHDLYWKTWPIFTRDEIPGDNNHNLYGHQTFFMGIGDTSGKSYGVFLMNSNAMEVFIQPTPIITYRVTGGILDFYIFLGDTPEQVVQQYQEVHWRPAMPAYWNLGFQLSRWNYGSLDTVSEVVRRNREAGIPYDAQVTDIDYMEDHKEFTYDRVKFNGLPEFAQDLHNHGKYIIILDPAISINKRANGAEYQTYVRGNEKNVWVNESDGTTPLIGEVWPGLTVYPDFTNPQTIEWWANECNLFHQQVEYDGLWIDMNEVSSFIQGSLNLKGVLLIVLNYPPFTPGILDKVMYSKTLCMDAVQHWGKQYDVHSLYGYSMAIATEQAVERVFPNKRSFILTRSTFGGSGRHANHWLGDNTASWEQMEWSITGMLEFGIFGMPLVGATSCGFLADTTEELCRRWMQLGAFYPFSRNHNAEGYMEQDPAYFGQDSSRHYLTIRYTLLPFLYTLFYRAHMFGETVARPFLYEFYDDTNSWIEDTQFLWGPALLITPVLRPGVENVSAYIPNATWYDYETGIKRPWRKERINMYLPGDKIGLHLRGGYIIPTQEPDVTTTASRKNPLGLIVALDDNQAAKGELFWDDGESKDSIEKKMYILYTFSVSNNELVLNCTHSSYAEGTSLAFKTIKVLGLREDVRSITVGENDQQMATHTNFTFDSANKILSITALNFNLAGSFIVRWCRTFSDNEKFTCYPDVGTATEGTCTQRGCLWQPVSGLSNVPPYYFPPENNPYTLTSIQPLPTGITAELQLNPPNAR

IC50: 0.4 µM
Compound: C[C@H]1O[C@H](O[C@H]2[C@H](O)[C@@H](O)[C@@H](O[C@H]3[C@H](O)[C@@H](O)C(O)O[C@@H]3CO)O[C@@H]2CO)[C@H](O)[C@@H](O)[C@@H]1N[C@H]1C=C(CO)[C@@H](O)[C@H](O)[C@H]1O (stereo partly specified) [ACARBOSE]
